{"source": "ChEMBL document CHEMBL1144934", "about": "“Efficacious and orally bioavailable thrombin inhibitors based on a 2,5-thienylamidine at the P1 position: discovery of N-carboxymethyl-d-diphenylalanyl-l-prolyl[(5-amidino-2-thienyl)methyl]amide” (J Med Chem, 2003)", "molecular_target": "Prothrombin (Homo sapiens, UniProt P00734)", "assay": "In vitro inhibition constant (Ki) against human thrombin", "data": [{"smiles": "CC1CNc2c(cccc2S(=O)(=O)N[C@@H](CCCNC(=N)N)C(=O)N2CC[C@@H](C)C[C@@H]2C(=O)O)C1", "note": "(stereo partly specified) [ARGATROBAN]", "values": [{"measurement": "Ki", "value": 4, "unit": "nM"}]}]}
